# Results from BindingDB's records for 27364609 (Florida A&M University, 2016).
# Protein sequences, listed by entry. Tags and fused reporters are not part of them. Chains listed by the source or under a name are the forms on record and can include a tag or linker.
# UniProt P14416, whole entry: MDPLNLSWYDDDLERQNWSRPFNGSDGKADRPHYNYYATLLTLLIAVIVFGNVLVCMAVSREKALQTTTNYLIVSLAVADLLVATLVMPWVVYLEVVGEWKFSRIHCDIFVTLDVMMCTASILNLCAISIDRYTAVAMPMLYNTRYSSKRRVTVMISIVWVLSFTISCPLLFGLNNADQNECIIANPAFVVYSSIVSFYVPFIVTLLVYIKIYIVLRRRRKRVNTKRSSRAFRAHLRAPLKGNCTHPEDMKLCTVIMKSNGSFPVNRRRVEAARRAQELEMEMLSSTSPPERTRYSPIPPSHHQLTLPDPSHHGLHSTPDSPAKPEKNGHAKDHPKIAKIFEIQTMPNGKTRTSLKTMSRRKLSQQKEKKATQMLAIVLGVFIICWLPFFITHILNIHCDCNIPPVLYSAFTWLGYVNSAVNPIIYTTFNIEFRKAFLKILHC
# UniProt P21917, whole entry: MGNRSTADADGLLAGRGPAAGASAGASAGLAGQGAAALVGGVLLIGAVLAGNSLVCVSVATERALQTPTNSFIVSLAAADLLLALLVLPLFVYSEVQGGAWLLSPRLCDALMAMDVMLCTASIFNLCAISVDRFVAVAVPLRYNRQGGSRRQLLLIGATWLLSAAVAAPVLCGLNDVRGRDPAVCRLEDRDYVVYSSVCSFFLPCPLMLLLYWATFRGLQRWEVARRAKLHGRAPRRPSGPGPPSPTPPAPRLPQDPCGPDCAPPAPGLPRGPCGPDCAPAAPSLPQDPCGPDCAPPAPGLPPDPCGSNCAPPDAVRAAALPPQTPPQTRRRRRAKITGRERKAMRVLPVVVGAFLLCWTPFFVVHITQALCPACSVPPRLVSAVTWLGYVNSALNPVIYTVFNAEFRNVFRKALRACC
# UniProt P35462, with tags, fused parts or gaps: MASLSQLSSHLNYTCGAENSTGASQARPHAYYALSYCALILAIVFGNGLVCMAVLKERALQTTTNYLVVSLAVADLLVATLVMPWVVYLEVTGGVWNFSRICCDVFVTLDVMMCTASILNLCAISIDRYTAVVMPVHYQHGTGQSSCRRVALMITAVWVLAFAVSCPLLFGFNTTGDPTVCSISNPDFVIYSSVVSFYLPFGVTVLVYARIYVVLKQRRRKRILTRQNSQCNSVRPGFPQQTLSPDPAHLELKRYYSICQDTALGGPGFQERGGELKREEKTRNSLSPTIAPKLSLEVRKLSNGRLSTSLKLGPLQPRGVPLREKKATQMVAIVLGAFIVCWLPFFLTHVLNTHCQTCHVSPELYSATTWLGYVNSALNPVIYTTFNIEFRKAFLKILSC
# UniProt P35367, whole entry: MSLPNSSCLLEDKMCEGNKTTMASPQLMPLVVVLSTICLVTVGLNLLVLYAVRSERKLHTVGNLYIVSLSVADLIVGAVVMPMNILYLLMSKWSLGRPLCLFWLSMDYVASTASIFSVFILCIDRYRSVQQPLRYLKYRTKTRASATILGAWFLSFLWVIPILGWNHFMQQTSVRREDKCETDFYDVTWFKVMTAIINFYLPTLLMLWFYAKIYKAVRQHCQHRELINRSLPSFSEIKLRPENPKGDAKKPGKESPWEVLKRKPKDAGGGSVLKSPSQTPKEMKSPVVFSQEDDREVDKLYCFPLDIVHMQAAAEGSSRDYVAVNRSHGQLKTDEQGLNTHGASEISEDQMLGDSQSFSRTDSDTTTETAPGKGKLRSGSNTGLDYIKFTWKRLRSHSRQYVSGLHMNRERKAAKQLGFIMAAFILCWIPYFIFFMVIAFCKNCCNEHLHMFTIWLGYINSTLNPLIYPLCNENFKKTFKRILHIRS
# UniProt P34969, whole entry: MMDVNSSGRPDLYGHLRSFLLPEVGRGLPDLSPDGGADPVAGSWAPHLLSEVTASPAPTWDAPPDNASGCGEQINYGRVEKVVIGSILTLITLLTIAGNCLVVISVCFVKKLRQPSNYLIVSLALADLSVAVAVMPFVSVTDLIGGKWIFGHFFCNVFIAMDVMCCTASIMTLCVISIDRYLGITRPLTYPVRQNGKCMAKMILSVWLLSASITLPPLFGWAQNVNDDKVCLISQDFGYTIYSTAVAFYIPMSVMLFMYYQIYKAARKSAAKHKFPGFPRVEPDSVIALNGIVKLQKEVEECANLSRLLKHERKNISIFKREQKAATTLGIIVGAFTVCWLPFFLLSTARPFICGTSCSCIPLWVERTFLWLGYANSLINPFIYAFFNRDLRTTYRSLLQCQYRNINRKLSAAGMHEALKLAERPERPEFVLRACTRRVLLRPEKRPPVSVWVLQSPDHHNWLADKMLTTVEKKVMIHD
# UniProt P31645, whole entry: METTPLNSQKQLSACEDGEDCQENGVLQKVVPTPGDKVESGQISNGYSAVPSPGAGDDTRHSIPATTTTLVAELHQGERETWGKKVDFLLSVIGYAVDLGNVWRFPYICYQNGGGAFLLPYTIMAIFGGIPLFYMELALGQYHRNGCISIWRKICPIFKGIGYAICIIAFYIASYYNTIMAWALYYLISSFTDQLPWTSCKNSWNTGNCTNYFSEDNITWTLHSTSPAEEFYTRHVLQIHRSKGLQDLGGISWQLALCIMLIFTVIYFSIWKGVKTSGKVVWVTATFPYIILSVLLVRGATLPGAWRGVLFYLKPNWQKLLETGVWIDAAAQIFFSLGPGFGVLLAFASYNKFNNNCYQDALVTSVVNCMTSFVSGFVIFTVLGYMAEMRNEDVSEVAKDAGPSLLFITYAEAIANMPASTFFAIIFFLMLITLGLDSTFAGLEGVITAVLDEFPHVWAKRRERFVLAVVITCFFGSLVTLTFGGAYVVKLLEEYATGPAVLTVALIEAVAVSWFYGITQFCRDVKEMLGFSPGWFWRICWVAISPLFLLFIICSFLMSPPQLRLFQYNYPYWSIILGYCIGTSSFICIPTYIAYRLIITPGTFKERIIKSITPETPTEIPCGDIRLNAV
# UniProt P41595, whole entry: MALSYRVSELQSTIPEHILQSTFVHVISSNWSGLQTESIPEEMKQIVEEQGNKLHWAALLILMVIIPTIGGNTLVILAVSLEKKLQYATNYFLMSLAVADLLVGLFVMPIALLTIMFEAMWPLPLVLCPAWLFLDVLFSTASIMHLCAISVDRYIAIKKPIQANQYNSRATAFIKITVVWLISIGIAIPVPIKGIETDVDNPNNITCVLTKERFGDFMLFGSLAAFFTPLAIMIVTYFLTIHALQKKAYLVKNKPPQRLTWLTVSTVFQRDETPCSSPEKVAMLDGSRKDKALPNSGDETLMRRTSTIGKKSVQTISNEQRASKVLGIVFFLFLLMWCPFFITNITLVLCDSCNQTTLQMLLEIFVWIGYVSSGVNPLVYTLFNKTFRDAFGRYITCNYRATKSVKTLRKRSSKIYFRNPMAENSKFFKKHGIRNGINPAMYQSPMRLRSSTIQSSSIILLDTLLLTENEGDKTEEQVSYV
# UniProt P08908, whole entry: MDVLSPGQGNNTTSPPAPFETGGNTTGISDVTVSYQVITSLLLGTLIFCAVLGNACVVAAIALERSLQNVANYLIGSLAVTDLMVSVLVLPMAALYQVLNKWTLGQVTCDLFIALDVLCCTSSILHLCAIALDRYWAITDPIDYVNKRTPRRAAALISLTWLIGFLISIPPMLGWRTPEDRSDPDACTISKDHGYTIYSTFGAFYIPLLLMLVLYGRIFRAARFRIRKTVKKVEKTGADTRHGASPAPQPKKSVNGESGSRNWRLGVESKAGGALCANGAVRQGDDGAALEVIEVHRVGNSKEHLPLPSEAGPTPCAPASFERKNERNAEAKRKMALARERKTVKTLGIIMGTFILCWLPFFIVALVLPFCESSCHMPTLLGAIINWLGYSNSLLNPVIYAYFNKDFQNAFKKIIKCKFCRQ
# This is a selection: effects in other tests are not listed, and their absence says nothing.
# Key:
# D(2) dopamine receptor = D(2) dopamine receptor (Homo sapiens, UniProt P14416); assay: Displacement of [3H]N-methylspiperone from human recombinant dopamine D2 receptor incubated for 1.5 hrs by microbeta scintillation counting method
# D(4) dopamine receptor = D(4) dopamine receptor (Homo sapiens, UniProt P21917); assay: Displacement of [3H]N-methylspiperone from human recombinant dopamine D4 receptor incubated for 1.5 hrs by microbeta scintillation counting method
# D(3) dopamine receptor = D(3) dopamine receptor (Homo sapiens, UniProt P35462); assay: Displacement of [3H]N-methylspiperone from human recombinant dopamine D3 receptor incubated for 1.5 hrs by microbeta scintillation counting method
# Histamine H1 receptor = Histamine H1 receptor (Homo sapiens, UniProt P35367); assay: Displacement of [3H]Pyrilamine from human recombinant histamine H1 receptor incubated for 1.5 hrs by microbeta scintillation counting method
# [1] = biological target: 5-hydroxytryptamine receptor 7 (Homo sapiens, UniProt P34969); assay: Displacement of [3H]LSD from human recombinant 5HT7 receptor incubated for 1.5 hrs by microbeta scintillation counting method
# [2] = biological target: Sodium-dependent serotonin transporter (Homo sapiens, UniProt P31645); assay: Displacement of [3H]Citalopram from human recombinant SERT incubated for 1.5 hrs by microbeta scintillation counting method
# [3] = biological target: 5-hydroxytryptamine receptor 2B (Homo sapiens, UniProt P41595); assay: Displacement of [3H]LSD from human recombinant 5HT2B receptor incubated for 1.5 hrs by microbeta scintillation counting method
# [4] = biological target: 5-hydroxytryptamine receptor 1A (Homo sapiens, UniProt P08908); assay: Displacement of [3H]8-OH-DPAT from human recombinant 5HT1A receptor incubated for 1.5 hrs by microbeta scintillation counting method
Compound,Ki (D(2) dopamine receptor) [nM],Ki (D(4) dopamine receptor) [nM],Ki (D(3) dopamine receptor) [nM],Ki (Histamine H1 receptor) [nM],Ki [1] [nM],Ki [2] [nM],Ki [3] [nM],Ki [4] [nM]
O=c1[nH]c2cc(Cl)ccc2n1C1CCN(CCCCc2c[nH]c3ccccc23)CC1,135,,,,,,,
O=c1[nH]c2cc(Cl)ccc2n1C1CCN(CCCCc2nc3ccccc3s2)CC1,214,676,162,,,,,
O=c1[nH]c2cc(Cl)ccc2n1C1CCN(CCCCc2nc3ccccc3o2)CC1,,832,,501,316,389,513,617
